A word on the Kd: it is the constant that tells how readily two partners part at equilibrium.

The target in the experiment is T1, endothiapepsin (EP) (Cryphonectria parasitica, UniProt P11838).
T1 sequence (P11838 90-419): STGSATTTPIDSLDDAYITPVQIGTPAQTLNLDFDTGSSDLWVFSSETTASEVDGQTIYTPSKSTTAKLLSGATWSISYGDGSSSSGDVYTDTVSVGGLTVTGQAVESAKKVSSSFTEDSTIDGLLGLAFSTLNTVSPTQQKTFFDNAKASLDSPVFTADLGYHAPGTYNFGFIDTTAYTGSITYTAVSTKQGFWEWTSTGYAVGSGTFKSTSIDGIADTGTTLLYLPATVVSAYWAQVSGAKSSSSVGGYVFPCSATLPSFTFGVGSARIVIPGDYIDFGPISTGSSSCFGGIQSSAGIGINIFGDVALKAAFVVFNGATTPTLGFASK
In words: Isothermal titration calorimetry (direct or SAP114-displacement titration) against EP. The format is binding. Particulars: 0.1 M sodium acetate pH 4.6, 3%(v/v) DMSO; direct or displacement titration (Table S2); FU5-1 (as HCl salt, 0.1% Tween 20) and FU5-2 in triplicate, others n = 1; read-out: Kd determined by ITC. Here is the method:
ITC experiments were conducted similarly to the procedure desribed by Schiebel, Radeva et al. (2016[▸]) on a MicroCal ITC200 (Malvern) instrument. All buffer solutions for ITC were prepared with the same batch of buffer as used to isolate the batch of EP. Details of the ITC experiments, including the protein and ligand concentrations for each experiment, are listed in Supplementary Table S2. […] All displacement titrations were conducted as single measurements, except for that of FU5-2 (n = 3). The affinities of the stronger binding follow-up ligands were determined by direct ITC titrations. For this, 1 mM compound in a buffer solution consisting of 0.1 M sodium acetate pH 4.6, 3%(v/v) DMSO was titrated into the same buffer additionally containing 50 µM EP to a final stoichiometry of N = 4.
The obtained thermogram peaks of all titrations (Supplementary Fig. S4) were integrated with Nitpic 1.1.8 (Keller et al., 2012[▸]). Subsequently, fitting of a single-site binding-model isotherm was performed using SEDPHAT 10.58d (Houtman et al., 2007[▸]). For the errors of the fit, see Supplementary Table S3. […] During the fit, ΔH was corrected for the heat of dilution, which was individually fitted for each experiment. The stoichiometry was arbitrarily fixed at the anticipated stoichiometry of N = 1 as appropriate for the present low c-value titrations (Rühmann et al., 2015[▸]).
Table S2. […]

Structures are written as SMILES.

For `NC1=N/C(=N\Nc2ccccc2)c2ccccc21` [FU5-1], the Kd stood at 6.4 µM.

These data come from publication PMC8411975, “Frag4Lead: growing crystallographic fragment hits by catalog using fragment-guided template docking” (Acta Crystallographica. Section D, Structural Biology, 2021).
